# Experimental data from US6936585B2, “Corticotropin releasing factor 2 receptor agonists” (priority 2002, dated 2005).
# Key:
# CRF1R = biological target: T1, CRF1R (Homo sapiens, UniProt P34998); assay: CRF1R agonist activation (EC50 / Emax), called comparative CRF binding; format: cell-based; conditions: for Emax: read-out: CRF1R Emax
# T1 sequence (P34998 24-415): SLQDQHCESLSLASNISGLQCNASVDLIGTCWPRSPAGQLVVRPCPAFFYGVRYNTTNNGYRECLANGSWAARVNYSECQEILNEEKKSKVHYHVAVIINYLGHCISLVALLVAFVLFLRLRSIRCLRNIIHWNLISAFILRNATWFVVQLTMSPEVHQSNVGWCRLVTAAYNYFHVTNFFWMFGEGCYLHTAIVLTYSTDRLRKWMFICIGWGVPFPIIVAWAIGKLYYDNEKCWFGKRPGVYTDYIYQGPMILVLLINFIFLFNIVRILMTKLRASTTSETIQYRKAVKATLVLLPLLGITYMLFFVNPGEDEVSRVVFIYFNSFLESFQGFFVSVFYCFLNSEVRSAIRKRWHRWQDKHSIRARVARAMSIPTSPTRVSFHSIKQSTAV
# How it was run: (§1)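 Cells expressing human CRF1R or CRF2R are exposed to peptide or vehicle control, and receptor activation is read as cAMP induction, measured in cell lysates or via a CRE-linked reporter gene.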
# CRF2R = biological target: T2, CRF2R (Homo sapiens, UniProt Q13324); assay: CRF2R agonist activation (EC50 / Emax), called comparative CRF binding; format: cell-based; conditions: for Emax: read-out: CRF2R Emax
# T2 sequence (Q13324 1-411): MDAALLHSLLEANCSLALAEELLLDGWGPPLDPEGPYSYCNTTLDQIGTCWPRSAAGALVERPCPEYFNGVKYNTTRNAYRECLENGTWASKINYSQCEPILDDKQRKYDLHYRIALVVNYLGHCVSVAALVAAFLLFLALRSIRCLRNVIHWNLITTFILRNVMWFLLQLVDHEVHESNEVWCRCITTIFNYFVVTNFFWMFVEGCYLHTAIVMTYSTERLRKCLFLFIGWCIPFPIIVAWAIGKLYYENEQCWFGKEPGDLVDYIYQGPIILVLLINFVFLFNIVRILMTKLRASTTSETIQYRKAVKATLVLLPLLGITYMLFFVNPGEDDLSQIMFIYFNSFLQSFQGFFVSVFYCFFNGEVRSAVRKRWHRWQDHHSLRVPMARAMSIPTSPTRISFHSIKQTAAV
# How it was run: as §1
Structure (SMILES),EC50 (CRF1R; CRF1R EC50) [nM],Emax (CRF1R) [%],EC50 (CRF2R) [nM],Emax (CRF2R) [%]
CC[C@H](C)[C@H](NC(=O)[C@@H](NC(=O)[C@H](CC(=O)O)NC(=O)[C@H](CC(C)C)NC(=O)[C@H](CC(C)C)NC(=O)[C@H](CC(C)C)NC(=O)[C@H](C)NC(=O)[C@H](CC(N)=O)NC(=O)[C@H](CC(N)=O)NC(=O)[C@H](C)NC(=O)[C@H](C)NC(=O)[C@H](CCC(N)=O)NC(=O)[C@H](CCC(N)=O)NC(=O)[C@H](CCCCN)NC(=O)[C@H](CCC(=O)O)NC(=O)[C@H](CCCCN)NC(=O)[C@H](CCC(=O)O)NC(=O)[C@H](CCC(N)=O)NC(=O)[C@H](CCCCN)NC(=O)[C@H](CCC(=O)O)NC(=O)[C@@H](NC(=O)[C@H](CCC(=O)O)NC(=O)[C@@H](NC(=O)[C@@H](NC(=O)[C@H](CCCCN)NC(=O)[C@H](CCCNC(=N)N)NC(=O)[C@H](CC(C)C)NC(=O)[C@H](CC(C)C)NC(=O)[C@H](Cc1c[nH]cn1)NC(=O)[C@H](Cc1ccc(O)cc1)NC(=O)[C@@H]1CCCN1C(=O)[C@H](CC(C)C)NC(=O)[C@H](CC(=O)O)NC(=O)[C@@H](NC(=O)[C@H](CO)NC(=O)[C@@H](NC(=O)[C@@H]1CCCN1C(=O)[C@@H]1CCCN1C(=O)CNC(=O)[C@@H]1CCC(=O)N1)[C@@H](C)CC)[C@@H](C)CC)C(C)C)[C@@H](C)CC)[C@@H](C)CC)[C@@H](C)O)C(N)=O [compound 312],870,62,14.1,95
CC[C@H](C)[C@H](NC(=O)[C@H](CCC(=O)O)NC(=O)[C@@H](NC(=O)[C@H](CCSC)NC(=O)[C@H](CCCCN)NC(=O)[C@H](CCCNC(=N)N)NC(=O)[C@H](CC(C)C)NC(=O)[C@H](CC(C)C)NC(=O)[C@H](Cc1ccc(O)cc1)NC(=O)[C@H](CC(C)C)NC(=O)[C@@H]1CCCN1C(=O)[C@H](CC(C)C)NC(=O)[C@H](CC(=O)O)NC(=O)[C@@H](NC(=O)[C@H](CO)NC(=O)[C@@H](NC(=O)[C@@H]1CCCN1C(=O)[C@@H]1CCCN1C(=O)CNC(=O)[C@@H]1CCC(=O)N1)[C@@H](C)CC)[C@@H](C)CC)[C@@H](C)CC)C(=O)N[C@@H](CCC(=O)O)C(=O)N[C@@H](CCCCN)C(=O)N[C@@H](CCC(N)=O)C(=O)N[C@@H](CCC(=O)O)C(=O)N[C@@H](CCCCN)C(=O)N[C@@H](CCC(=O)O)C(=O)N[C@@H](CCCCN)C(=O)N[C@@H](CCC(N)=O)C(=O)N[C@@H](CCC(N)=O)C(=O)N[C@@H](C)C(=O)N[C@H](C(=O)N[C@H](C(=O)N[C@@H](CC(N)=O)C(=O)N[C@@H](C)C(=O)N[C@@H](CCCNC(=N)N)C(=O)N[C@@H](CC(C)C)C(=O)N[C@@H](CC(C)C)C(=O)N[C@@H](CC(=O)O)C(=O)N[C@@H](CCCNC(=N)N)C(=O)N[C@H](C(N)=O)C(C)C)[C@@H](C)O)[C@@H](C)O [compound 243],,96,,100
CC[C@H](C)[C@H](NC(=O)[C@H](CC(N)=O)NC(=O)[C@H](C)NC(=O)[C@H](CC(C)C)NC(=O)[C@H](CC(C)C)NC(=O)[C@H](CC(N)=O)NC(=O)[C@H](C)NC(=O)[C@H](CC(N)=O)NC(=O)[C@H](CC(N)=O)NC(=O)[C@H](C)NC(=O)[C@H](C)NC(=O)[C@H](CCC(N)=O)NC(=O)[C@H](CCC(N)=O)NC(=O)[C@H](CCCCN)NC(=O)[C@H](CCC(=O)O)NC(=O)[C@H](CCCCN)NC(=O)[C@H](CCC(=O)O)NC(=O)[C@H](CCC(N)=O)NC(=O)[C@H](CCCCN)NC(=O)[C@H](CCC(=O)O)NC(=O)[C@@H](NC(=O)[C@H](CCC(=O)O)NC(=O)[C@@H](NC(=O)[C@@H](NC(=O)[C@H](CCCCN)NC(=O)[C@H](CCCNC(=N)N)NC(=O)[C@H](CC(C)C)NC(=O)[C@H](CC(C)C)NC(=O)[C@H](CCC(N)=O)NC(=O)[C@H](Cc1ccccc1)NC(=O)[C@@H]1CCCN1C(=O)[C@H](CC(C)C)NC(=O)[C@H](CC(=O)O)NC(=O)[C@@H](NC(=O)[C@H](CO)NC(=O)[C@@H](NC(=O)[C@@H]1CCCN1C(=O)[C@@H]1CCCN1C(=O)CNC(=O)[C@@H]1CCC(=O)N1)[C@@H](C)CC)[C@@H](C)CC)C(C)C)[C@@H](C)CC)[C@@H](C)CC)C(N)=O [compound 275],,38.3,,100
CC[C@H](C)[C@H](NC(=O)[C@H](CCC(=O)O)NC(=O)[C@@H](NC(=O)[C@H](CCSC)NC(=O)[C@H](CCCCN)NC(=O)[C@H](CCCNC(=N)N)NC(=O)[C@H](CC(C)C)NC(=O)[C@H](CC(C)C)NC(=O)[C@H](Cc1c[nH]cn1)NC(=O)[C@H](CC(C)C)NC(=O)[C@@H]1CCCN1C(=O)[C@H](CC(C)C)NC(=O)[C@H](CC(=O)O)NC(=O)[C@@H](NC(=O)[C@H](CO)NC(=O)[C@@H](NC(=O)[C@@H]1CCCN1C(=O)[C@@H]1CCCN1C(=O)CNC(=O)[C@@H]1CCC(=O)N1)[C@@H](C)CC)[C@@H](C)CC)[C@@H](C)CC)C(=O)N[C@@H](CCC(=O)O)C(=O)N[C@@H](CCCCN)C(=O)N[C@@H](CCC(N)=O)C(=O)N[C@@H](CCC(=O)O)C(=O)N[C@@H](CCCCN)C(=O)N[C@@H](CCC(=O)O)C(=O)N[C@@H](CCCCN)C(=O)N[C@@H](CCC(N)=O)C(=O)N[C@@H](CCC(N)=O)C(=O)N[C@@H](C)C(=O)N[C@H](C(=O)N[C@H](C(=O)N[C@@H](CC(N)=O)C(=O)N[C@@H](C)C(=O)N[C@@H](CCCNC(=N)N)C(=O)N[C@@H](CC(C)C)C(=O)N[C@@H](CC(C)C)C(=O)N[C@@H](CC(=O)O)C(=O)N[C@@H](CCCNC(=N)N)C(=O)N[C@H](C(N)=O)C(C)C)[C@@H](C)O)[C@@H](C)O [compound 239],,80,,100
CC[C@H](C)[C@H](NC(=O)[C@H](CCCNC(=N)N)NC(=O)[C@H](C)NC(=O)[C@H](CC(C)C)NC(=O)[C@H](CC(C)C)NC(=O)[C@H](CCCNC(=N)N)NC(=O)[C@H](C)NC(=O)[C@H](CC(N)=O)NC(=O)[C@H](CC(N)=O)NC(=O)[C@H](C)NC(=O)[C@H](C)NC(=O)[C@H](CCC(N)=O)NC(=O)[C@H](CCC(N)=O)NC(=O)[C@H](CCCCN)NC(=O)[C@H](CCC(=O)O)NC(=O)[C@H](CCCCN)NC(=O)[C@H](CCC(=O)O)NC(=O)[C@H](CCC(N)=O)NC(=O)[C@H](CCCCN)NC(=O)[C@H](CCC(=O)O)NC(=O)[C@@H](NC(=O)[C@H](CCC(=O)O)NC(=O)[C@@H](NC(=O)[C@@H](NC(=O)[C@H](CCCCN)NC(=O)[C@H](CCCNC(=N)N)NC(=O)[C@H](CC(C)C)NC(=O)[C@H](CC(C)C)NC(=O)[C@H](Cc1c[nH]c2ccccc12)NC(=O)[C@@H](NC(=O)[C@@H]1CCCN1C(=O)[C@H](CC(C)C)NC(=O)[C@H](CC(=O)O)NC(=O)[C@@H](NC(=O)[C@H](CO)NC(=O)[C@@H](NC(=O)[C@@H]1CCCN1C(=O)[C@@H]1CCCN1C(=O)CNC(=O)[C@@H]1CCC(=O)N1)[C@@H](C)CC)[C@@H](C)CC)[C@@H](C)O)C(C)C)[C@@H](C)CC)[C@@H](C)CC)C(N)=O [compound 291],,4.75,,63.8
CC[C@H](C)[C@H](NC(=O)[C@H](CCCNC(=N)N)NC(=O)[C@H](C)NC(=O)[C@H](CC(C)C)NC(=O)[C@H](CC(C)C)NC(=O)[C@H](CCCNC(=N)N)NC(=O)[C@H](C)NC(=O)[C@H](CC(N)=O)NC(=O)[C@H](CC(N)=O)NC(=O)[C@H](C)NC(=O)[C@H](C)NC(=O)[C@H](CCC(N)=O)NC(=O)[C@H](CCC(N)=O)NC(=O)[C@H](CCCCN)NC(=O)[C@H](CCC(=O)O)NC(=O)[C@H](CCCCN)NC(=O)[C@H](CCC(=O)O)NC(=O)[C@H](CCC(N)=O)NC(=O)[C@H](CCCCN)NC(=O)[C@H](CCC(=O)O)NC(=O)[C@@H](NC(=O)[C@H](CCC(=O)O)NC(=O)[C@@H](NC(=O)[C@@H](NC(=O)[C@H](CCCCN)NC(=O)[C@H](CCCNC(=N)N)NC(=O)[C@H](CC(C)C)NC(=O)[C@H](CC(C)C)NC(=O)[C@H](CCC(N)=O)NC(=O)[C@H](Cc1ccc(O)cc1)NC(=O)[C@@H]1CCCN1C(=O)[C@@H](NC(=O)[C@H](CC(=O)O)NC(=O)[C@@H](NC(=O)[C@H](CO)NC(=O)[C@@H](NC(=O)[C@@H]1CCCN1C(=O)[C@@H]1CCCN1C(=O)CNC(=O)[C@@H]1CCC(=O)N1)[C@@H](C)CC)[C@@H](C)CC)C(C)C)C(C)C)[C@@H](C)CC)[C@@H](C)CC)C(N)=O [compound 375],,22,,100
